# Data reported in patent US3945994A, “Novel acid compounds” (Gist-Brocades N.V., priority 1973, dated 1976).
# Tested on: Bacillus subtilis ATCC 6633
# Test: agar serial dilution test, MIC
# Assay type: cell-based
# Conditions: 24 hours at 37°C
row,SMILES,MIC
1,CC1(C)S[C@@H]2[C@H](NC(=O)[C@H](NC(=O)NP(=O)(Nc3ccccc3)Nc3ccccc3)c3ccccc3)C(=O)N2[C@H]1C(=O)O,0.12 µg/mL
2,CC1(C)S[C@@H]2[C@H](NC(=O)[C@H](NC(=O)NP(=O)(O)O)c3ccccc3)C(=O)N2[C@H]1C(=O)O,0.5 µg/mL
3,CC1(C)S[C@@H]2[C@H](NC(=O)[C@H](NC(=O)NP(=O)(Oc3ccccc3)Oc3ccccc3)c3ccccc3)C(=O)N2[C@H]1C(=O)O,0.06 µg/mL
4,CN(C)P(=O)(NC(=O)N[C@@H](C(=O)N[C@@H]1C(=O)N2[C@@H]1SC(C)(C)[C@@H]2C(=O)O)c1ccccc1)N(C)C,1 µg/mL
5,CC1(C)S[C@@H]2[C@H](NC(=O)[C@H](NC(=O)NP(=O)(OCc3ccccc3)c3ccccc3)c3ccccc3)C(=O)N2[C@H]1C(=O)O (stereo partly shown),0.5 µg/mL
6,CCOP(=O)(NC(=O)N[C@@H](C(=O)N[C@@H]1C(=O)N2[C@@H]1SC(C)(C)[C@@H]2C(=O)O)c1ccccc1)Nc1ccccc1 (stereo partly shown),1 µg/mL
7,CC1(C)S[C@@H]2[C@H](NC(=O)[C@H](NC(=S)NP(=S)(Oc3ccccc3)Oc3ccccc3)c3ccccc3)C(=O)N2[C@H]1C(=O)O,0.5 µg/mL
8,CC1(C)S[C@@H]2[C@H](NC(=O)[C@H](NC(=O)NP(=O)(c3ccccc3)c3ccccc3)c3ccccc3)C(=O)N2[C@H]1C(=O)O,0.3 µg/mL
9,CCOP(=S)(NC(=O)N[C@@H](C(=O)N[C@@H]1C(=O)N2[C@@H]1SC(C)(C)[C@@H]2C(=O)O)c1ccccc1)OCC,0.25 µg/mL
10,CCOP(=S)(NC(=S)N[C@@H](C(=O)N[C@@H]1C(=O)N2[C@@H]1SC(C)(C)[C@@H]2C(=O)O)c1ccccc1)OCC,3 µg/mL
11,CCSP(=O)(NC(=O)N[C@@H](C(=O)N[C@@H]1C(=O)N2[C@@H]1SC(C)(C)[C@@H]2C(=O)O)c1ccccc1)SCC,0.25 µg/mL
12,CCOC(=O)NNP(=O)(NC(=O)N[C@@H](C(=O)N[C@@H]1C(=O)N2[C@@H]1SC(C)(C)[C@@H]2C(=O)O)c1ccccc1)OCC (stereo partly shown),0.5 µg/mL
13,CCOP(=O)(NC(=O)N[C@@H](C(=O)N[C@@H]1C(=O)N2C(C(=O)O)=C(C)CS[C@H]12)c1ccccc1)OCC,6 µg/mL
14,CCOP(=O)(NC(=S)N[C@@H](C(=O)N[C@@H]1C(=O)N2[C@@H]1SC(C)(C)[C@@H]2C(=O)O)c1ccccc1)OCC,0.25 µg/mL
15,CC1=C(C(=O)O)N2C(=O)[C@@H](NC(=O)[C@H](NC(=O)NP(=O)(Oc3ccccc3)Oc3ccccc3)c3ccccc3)[C@H]2SC1,6 µg/mL
16,CC1(C)S[C@@H]2[C@H](NC(=O)[C@H](NC(=O)NP(=O)(OCc3ccccc3)OCc3ccccc3)c3ccccc3)C(=O)N2[C@H]1C(=O)O,0.25 µg/mL
17,CCOP(=O)(O)NC(=O)N[C@@H](C(=O)N[C@@H]1C(=O)N2C(C(=O)O)=C(C)CS[C@H]12)c1ccccc1,25 µg/mL
18,CC1(C)S[C@@H]2[C@H](NC(=O)[C@H](NC(=S)NP(=O)(Oc3ccccc3)Oc3ccccc3)c3ccccc3)C(=O)N2[C@H]1C(=O)O,0.25 µg/mL
19,CC1(C)S[C@@H]2[C@H](NC(=O)[C@H](NC(=O)NP(C)(C)=O)c3ccccc3)C(=O)N2[C@H]1C(=O)O,0.25 µg/mL
20,CCOP(=O)(NC(=O)N[C@@H](C(=O)N[C@@H]1C(=O)N2[C@@H]1SC(C)(C)[C@@H]2C(=O)O)c1ccccc1)OCc1ccccc1 (stereo partly shown),0.25 µg/mL
21,CCOP(=O)(NC(=O)Nc1ccccc1)N[C@@H](C(=O)N[C@@H]1C(=O)N2[C@@H]1SC(C)(C)[C@@H]2C(=O)O)c1ccccc1 (stereo partly shown),0.5 µg/mL
22,CCOP(=O)(NC(=O)N[C@@H](C(=O)N[C@@H]1C(=O)N2[C@@H]1SC(C)(C)[C@@H]2C(=O)O)c1ccccc1)OCC,0.5 µg/mL
23,CC1(C)S[C@@H]2[C@H](NC(=O)[C@H](NC(=S)NP(=O)(c3ccccc3)c3ccccc3)c3ccccc3)C(=O)N2[C@H]1C(=O)O,0.5 µg/mL
24,CN(C)P(=O)(NC(=S)N[C@@H](C(=O)N[C@@H]1C(=O)N2[C@@H]1SC(C)(C)[C@@H]2C(=O)O)c1ccccc1)N(C)C,1 µg/mL
25,CC1(C)S[C@@H]2[C@H](NC(=O)[C@H](NC(=O)NP(=S)(Oc3ccccc3)Oc3ccccc3)c3ccccc3)C(=O)N2[C@H]1C(=O)O,0.25 µg/mL
